Results as given in PMC9696605 (Viruses, 2022).

Experiments:
[1] = system: phosphorylated Smad2 [pSpS465/467] in T cells from MS patients; assay: Phosphorylated Smad2 ELISA; assay type: cell-based, human; details: T cells from 12 MS patients, Figure 2e; Nedd4L RNAi p: 0.0026, pc: 0.018; pU24-6A p: 0.0015, pc: 0.011; pU24-6B p: 0.0039, pc: 0.027
[2] = system: NK cells from MS patients co-cultured with 721.221-ICP47-C1 cells; assay: Granzyme B ELISPOT/Fluorospot assay; assay type: cell-based, human; details: 721.221-ICP47-C1 cells incubated with pU24-6A; 0.2, 0.5, 1, or 4 h at 37 °C, Figure 5f
[3] = system: Nedd4L mRNA in T cells from MS patients; assay: Nedd4L mRNA expression, real-time PCR; assay type: cell-based, human; details: T cells from 12 MS patients, normalized to GAPDH, Figure 2c; pU24-6A p: 0.0025, pc: 0.018; pU24-6B p: 0.004, pc: 0.028; Nedd4L RNAi p: 0.0015, pc: 0.011
[4] = system: HLA-C1 in 721.221-ICP47-C1 cells; assay: HLA-C1 surface expression (stabilization) in 721.221-ICP47-C1 cells; assay type: cell-based, human; details: 721.221-ICP47-C1 cells incubated overnight at 26 °C with peptide, gMFI, Figure 5a; pU24-6A p: 0.0012, pc: 0.004
[5] = system: total Smad2 in T cells from MS patients; assay: Total Smad2 ELISA; assay type: cell-based, human; details: T cells from 12 MS patients, Figure 2d; Nedd4L RNAi p: 0.004, pc: 0.028; pU24-6A p: 0.0027, pc: 0.019; pU24-6B p: 0.0034, pc: 0.024
actin = details: cited from earlier work
T cells from MS patients = assay: EdU assay, T-cell proliferation; assay type: cell-based, human; details: T cells from 12 MS patients, peptide transfection, Figure 2b, pU24-6A p: 0.003, pc: 0.021, pU24-6B p: 0.007, pc: 0.049 (One way ANOVA, Bonferroni)

## CSCC[C@H](N)C(=O)N[C@@H](CC(=O)O)C(=O)N1CCC[C@H]1C(=O)N1CCC[C@H]1C(=O)N[C@@H](CCCNC(=N)N)C(=O)N[C@H](C(=O)N1CCC[C@H]1C(=O)N1CCC[C@H]1C(=O)N1CCC[C@H]1C(=O)N[C@@H](CO)C(=O)N[C@@H](Cc1ccc(O)cc1)C(=O)N[C@@H](CO)C(=O)N[C@@H](CCC(=O)O)C(=O)N[C@H](C(=O)N[C@@H](CC(C)C)C(=O)O)C(C)C)[C@@H](C)OP(=O)(O)O [pU24-6A]
[1]
  phosphorylated Smad2 expression: increased expression of total and phosphorylated Smad2 protein
[2]
  GrB spots, KIR2DL2 negative: number of GrB spots increased linearly
  degranulation cell frequency, KIR2DL2 positive: lower degranulation cell frequency, which was independent of incubation time
[3]
  Nedd4L mRNA expression: significantly decreased Nedd4L mRNA expression
[4]
  HLA-C1 expression / stabilization: increased expression of HLA-C1
[5]
  total Smad2 expression: increased expression of total and phosphorylated Smad2 protein

## MBP: myelin basic protein, a key component of the myelin sheath (IVTPRTPPPSQGKGR)
actin
  Effect of MBP phosphorylation on Kd of MBP-actin complex: without however affecting the dissociation constant of the MBP-actin complex
[3]
  Nedd4L mRNA expression: did not modify Nedd4L mRNA expression
[4]
  HLA-C1 expression / stabilization: lower binding affinity for HLA-C1
T cells from MS patients
  T-cell proliferation: induced T-cell proliferation
